Experimental data from US9708336B2, “Metallo-beta-lactamase inhibitors” (priority 2014, dated 2017).
Where two headings read alike, the source gives them in different places.

Amino acid sequences for entries named in this document (tags omitted). A change or cut given only in a name is not applied to a line headed by its entry.
UniProt P52699: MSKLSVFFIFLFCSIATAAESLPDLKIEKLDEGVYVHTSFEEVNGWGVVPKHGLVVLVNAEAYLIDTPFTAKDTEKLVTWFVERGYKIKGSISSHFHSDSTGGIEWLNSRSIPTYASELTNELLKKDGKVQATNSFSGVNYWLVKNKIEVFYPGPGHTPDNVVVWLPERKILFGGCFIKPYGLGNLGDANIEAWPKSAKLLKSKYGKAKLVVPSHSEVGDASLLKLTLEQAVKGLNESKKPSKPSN

How the values were obtained:
VIM-1 = VIM-1 (Pseudomonas aeruginosa (strain ATCC 15692 / DSM 22644 / CIP 104116 / JCM 14847 / LMG 12228 / 1C / PRS 101 / PAO1), UniProt A0A0F7KYQ8); experiment: Enzyme activity: determination of IC50, fluorescence assay with CCF2-FA substrate (VIM-1); format: biochemical
IMP-1 = IMP-1 (Serratia marcescens, UniProt P52699); format: biochemical
[1] = VIM-1 IC50, fluorescence assay with CCF2-FA substrate
[2] = fluorescence assay with CCF2-FA substrate
[3] = VIM-1 IC50, VIM-1 enzyme, CCF2-FA fluorescence assay
[4] = VIM-1 IC50, VIM-1 enzyme, CCF2-FA substrate

Compound	IC50 (VIM-1; [1]) [nM]	other results
NS(=O)(=O)c1cccc(-c2nccs2)c1-c1nn[nH]n1 [Example 35, 2-(2H-tetrazol-5-yl)-3-(1,3-thiazol-2-yl)benzenesulfonamide]	1010	
Cn1ccnc1-c1cccc(S(N)(=O)=O)c1-c1nn[nH]n1 [Example 38, 3-(1-methyl-1H-imidazol-2-yl)-2-(2H-tetrazol-5-yl)benzenesulfonamide]	5540	
NS(=O)(=O)c1cccc(-c2ncccn2)c1-c1nn[nH]n1 [Example 39, 3-pyrimidin-2-yl-2-(2H-tetrazol-5-yl)benzenesulfonamide]	8140	
Cn1cncc1-c1cccc(S(N)(=O)=O)c1-c1nn[nH]n1 [Example 43, 3-(1-methyl-1H-imidazol-5-yl)-2-(2H-tetrazol-5-yl)benzenesulfonamide]	2460	
CN(C(=O)c1ccc(-c2cccc(S(N)(=O)=O)c2-c2nn[nH]n2)cc1)C1CCOCC1 [Example 77, N-methyl-3′-sulfamoyl-N-(tetrahydro-2H-pyran-4-yl)-2′-(2H-tetrazol-5-yl)biphenyl-4-carboxamide]	2900	
NS(=O)(=O)c1cccc(-c2ccc(OCCN3CCCCC3)cc2)c1-c1nn[nH]n1 [Example 89, 4′-(2-piperidin-1-ylethoxy)-2-(2H-tetrazol-5-yl)biphen-3-sulfonamide]	1020	
NS(=O)(=O)c1cccc(-c2ccnc(CO)c2)c1-c1nn[nH]n1 [Example 92, 3-[2-(hydroxymethyl)pyridin-4-yl]-2-(2H-tetrazol-5-yl)benzenesulfonamide]		IC50 (IMP-1; [2]): 2530 nM
NS(=O)(=O)c1cccc(-c2csc(CN3CCOCC3)c2)c1-c1nn[nH]n1 [Example 103, 3-[5-(morpholin-4-ylmethyl)thiophen-3-yl]-2-(2H-tetrazol-5-yl)benzenesulfonamide]	2640	
CCOC(=O)CCn1cc(-c2cccc(S(N)(=O)=O)c2-c2nn[nH]n2)cn1 [Example 110, ethyl 3-{4-[3-sulfamoyl-2-(2H-tetrazol-5-yl)phenyl]-1H-pyrazol-1-yl}propanoate]	1360	
CN1CCN(c2cc(-c3cccc(S(N)(=O)=O)c3-c3nnn[nH]3)ccn2)CC1 [Example 116, 3-(2-(4-methylpiperazin-1-yl)pyridin-4-yl)-2-(1H-tetrazol-5-yl)benzenesulfonamide]	1240	
NS(=O)(=O)c1cccc(-c2ccc3nonc3c2)c1-c1nnn[nH]1 [Example 130, 3-(benzo[c][1,2,5]oxadiazol-5-yl)-2-(1H-tetrazol-5-yl)benzenesulfonamide]	41.8	
NS(=O)(=O)c1cccc(C2=CCS(=O)(=O)CC2)c1-c1nnn[nH]1 [Example 141, 3-(1,1-dioxido-3,6-dihydro-2H-thiopyran-4-yl)-2-(1H-tetrazol-5-yl)benzenesulfonamide]	2580	
NS(=O)(=O)c1cccc(CCc2cccnc2)c1-c1nnn[nH]1 [Example 143, 3-(2-pyridin-3-ylethyl)-2-(1H-tetrazol-5-yl)benzenesulfonamide]	380	
NS(=O)(=O)c1cccc(C#CCN2CCC(=O)CC2)c1-c1nn[nH]n1 [Example 146, 3-[3-(4-oxopiperidin-1-yl)prop-1-yn-1-yl]-2-(2H-tetrazol-5-yl)benzenesulfonamide]	2800	
NS(=O)(=O)c1nccc(-c2ccc(C(=O)NC3CCOCC3)cc2)c1-c1nnn[nH]1 [Example 186, 4-(2-Sulfamoyl-3-(1H-tetrazol-5-yl)pyridin-4-yl)-N-(tetrahydro-2H-pyran-4-yl)benzamide]	1860	
NS(=O)(=O)c1nccc(-c2cccnc2)c1-c1nnn[nH]1 [Example 193, 3′-(1H-tetrazol-5-yl)-[3,4′-bipyridine]-2′-sulfonamide]	813	
CN(C)c1ccc(-c2ccnc(S(N)(=O)=O)c2-c2nn[nH]n2)cn1 [Example 211, 6-(dimethylamino)-3′-(2H-tetrazol-5-yl)-[3,4′-bipyridine]-2′-sulfonamide]	242	
NS(=O)(=O)c1nccc(N2CCC(CN3CCOCC3)CC2)c1-c1nnn[nH]1 [Example 224, 4-[4-(morpholin-4-ylmethyl)piperidin-1-yl]-3-(1H-tetrazol-5-yl)pyridine-2-sulfonamide]	1180	IC50 (IMP-1; [2]): 1090 nM
NS(=O)(=O)c1nccc(NCc2ccccc2)c1-c1nnn[nH]1 [Example 235, 4-(benzylamino)-3-(1H-tetrazol-5-yl)pyridine-2-sulfonamide]	1730	
COC(=O)c1ccc(-c2nn[nH]n2)c(S(N)(=O)=O)c1 [Example 255, Methyl 3-sulfamoyl-4-(2H-tetrazol-5-yl)benzoate]		IC50 (IMP-1; IMP-1 enzyme, CCF2-FA fluorescence assay): 20000 nM; IC50 (VIM-1; [3]): 20000 nM

Compound	IC50 (VIM-1; [1]) [nM]	other results
NS(=O)(=O)c1cccc(-c2cnc3[nH]ncc3c2)c1-c1nn[nH]n1 [Example 309, 3-(1H-pyrazolo[3,4-b]pyridin-5-yl)-2-(2H-tetrazol-5-yl)benzenesulfonamide]		IC50 (VIM-1; [3]): 31.5 nM
Nc1ncc(-c2cccc(S(N)(=O)=O)c2-c2nn[nH]n2)cc1F [Example 314, 3-(6-amino-5-fluoropyridin-3-yl)-2-(2H-tetrazol-5-yl)benzenesulfonamide]		IC50 (VIM-1; [3]): 26.9 nM
CC(C(=O)O)N(C)Cc1ccc(-c2cccc(S(N)(=O)=O)c2-c2nnn[nH]2)cc1 (centres unmarked) [Example 367, N-methyl-N-{[3′-sulfamoyl-2′-(1H-tetrazol-5-yl)biphenyl-4-yl]methyl}alanine]		IC50 (VIM-1; [3]): 1000 nM
CN1C2CCC1CC(NCc1ccc(-c3cccc(S(N)(=O)=O)c3-c3nnn[nH]3)cc1)C2 (centres unmarked) [Example 370, 4′-{[(8-methyl-8-azabicyclo[3.2.1]oct-3-yl)amino]methyl}-2-(1H-tetrazol-5-yl)biphenyl-3-sulfonamide]		IC50 (VIM-1; [3]): 624 nM
NS(=O)(=O)c1ccc2ccccc2c1-c1nnn[nH]1 [Example 399, 1-(1H-tetrazol-5-yl)naphthalene-2-sulfonamide]		IC50 (VIM-1; [3]): 12400 nM
NS(=O)(=O)c1cccc(-c2nc(-c3ccncc3)cs2)c1-c1nnn[nH]1 [Example 407, 3-[4-(4-pyridyl)thiazol-2-yl]-2-(1H-tetrazol-5-yl)benzenesulfonamide]		IC50 (VIM-1; [3]): 133 nM
NS(=O)(=O)c1c(C(F)(F)F)ccc(-c2ccc3nccn3c2)c1-c1nnn[nH]1 [Example 481, 3-imidazo[1,2-a]pyridin-6-yl-2-(1H-tetrazol-5-yl)-6-(trifluoromethyl)benzenesulfonamide]		IC50 (VIM-1; [3]): 0.42 nM
NS(=O)(=O)c1c(C(F)(F)F)ccc(C2CCC2)c1-c1nnn[nH]1 [Example 492, 3-cyclobutyl-2-(1H-tetrazol-5-yl)-6-(trifluoromethyl)benzenesulfonamide]		IC50 (VIM-1; [4]): 12.3 nM
Nc1nc2cncc(-c3ccc(C(F)(F)F)c(S(N)(=O)=O)c3-c3nnn[nH]3)c2[nH]1 [Example 571, 3-(2-amino-1H-imidazo[4,5-c]pyridin-7-yl)-2-(1H-tetrazol-5-yl)-6-(trifluoromethyl)benzenesulfonamide]		IC50 (VIM-1; [4]): 5.06 nM
NS(=O)(=O)c1c(CC2CCNCC2)ccc(-c2ccc(C3CCNC3)cc2)c1-c1nn[nH]n1 (centres unmarked) [Example 588, 4-(piperidin-4-ylmethyl)-4′-(pyrrolidin-3-yl)-2-(2H-tetrazol-5-yl)-[1,1′-biphenyl]-3-sulfonamide]		IC50 (VIM-1; [4]): 2.61 nM
NS(=O)(=O)c1cccc(-c2ccc(NC3CCNC3)nc2)c1-c1nnn[nH]1 (centres unmarked) [Example 628, 3-[6-(pyrrolidin-3-ylamino)-3-pyridyl]-2-(1H-tetrazol-5-yl)benzenesulfonamide]		IC50 (VIM-1; [4]): 164 nM
NCCNc1ccc(-c2cccc(S(N)(=O)=O)c2-c2nnn[nH]2)cn1 [Example 634, 3-[6-(2-aminoethylamino)-3-pyridyl]-2-(1H-tetrazol-5-yl)benzenesulfonamide]		IC50 (VIM-1; [4]): 163 nM
NS(=O)(=O)c1c(C(F)(F)F)ccc(N2CCN3C(=O)OCC3C2)c1-c1nnn[nH]1 (centres unmarked) [Example 667, 3-(3-oxotetrahydro[1,3]oxazolo[3,4-a]pyrazin-7(1H)-yl)-2-(1H-tetrazol-5-yl)-6-(trifluoromethyl)benzenesulfonamide]		IC50 (VIM-1; [4]): 1.48 nM
NS(=O)(=O)c1c(C(F)(F)F)ccc([C@H]2CC[C@H](NC3CC[C@H]4NCC[C@@H]34)CC2)c1-c1nnn[nH]1 (stereo partly drawn) [Example 692, 3-{4-[(3aR,6aR)-octahydrocyclopenta[b]pyrrol-4-ylamino]cyclohexyl}-2-(1H-tetrazol-5-yl)-6-(trifluoromethyl)benzene sulfonamide]		IC50 (VIM-1; [4]): 12.7 nM
NC1CCN(C2CCN(c3ccc(C(F)(F)F)c(S(N)(=O)=O)c3-c3nnn[nH]3)CC2)C1 (centres unmarked) [Example 768, 3-[4-(3-aminopyrrolidin-1-yl)piperidin-1-yl]-2-(1H-tetrazol-5-yl)-6-(trifluoromethyl) benzenesulfonamide]	0.906	
NC1CCCC1N1CCC(c2ccc(-c3ccc(C(F)(F)F)c(S(N)(=O)=O)c3-c3nnn[nH]3)cc2)CC1 (centres unmarked) [Example 791, 4′-[1-(2-aminocyclopentyl)piperidin-4-yl]-2-(1H-tetrazol-5-yl)-4-(trifluoromethyl)biphenyl-3-sulfonamide]	11.1	
NC1CCCC(N2CCC(c3ccc(-c4ccc(C(F)(F)F)c(S(N)(=O)=O)c4-c4nnn[nH]4)cc3)CC2)C1 (centres unmarked) [Example 798, 4′-[1-(3-aminocyclohexyl)piperidin-4-yl]-2-(1H-tetrazol-5-yl)-4-(trifluoromethyl)biphenyl-3-sulfonamide]	13.3	
NS(=O)(=O)c1c(C(F)(F)F)ccc(-c2ccc(C3CN(CC4CCNCC4)C3)cc2)c1-c1nnn[nH]1 [Example 804, 4′-[1-(piperidin-4-ylmethyl)azetidin-3-yl]-2-(1H-tetrazol-5-yl)-4-(trifluoromethyl)biphenyl-3-sulfonamide]	8.72	
NC1CCC(N2CC(c3ccc(-c4ccc(C(F)(F)F)c(S(N)(=O)=O)c4-c4nnn[nH]4)cc3)C2)CC1 (centres unmarked) [Example 809, 4′-[1-(4-aminocyclohexyl)azetidin-3-yl]-2-(1H-tetrazol-5-yl)-4-(trifluoromethyl)biphenyl-3-sulfonamide]	27.9	
